# Curated experimental data: melting point values

Source: data files of OPERA 2.9 (Mansouri et al.), github.com/kmansouri/OPERA.

The melting point is given in degrees Celsius. Cells with "–" have no entry in this list. The databases behind each value are named after "via".

SMILES,name,melting point (°C),via
CC(Cl)C(=O)NC(C)c1ccccc1 (stereo not drawn),2-chloro-N-(1-phenylethyl)propanamide,90,OCHEM
F/C(=C\Cl)C(F)F,–,-82.3,eChemPortal
O=P(N1CC1)(N1CC1)N(/N=C/c1ccc(Cl)cc1)c1ccccc1,"TEPA,N-p-CL-benzyliden-N-Ph-hydrazin1yl",136,OCHEM
Nc1cc2c(cc1Cl)NC(=O)CO2,"7-Amino-6-chloro-2H-1,4-benzoxazin-3(4H)-one",228,OCHEM
CCCCCCCCCCCCCCCCCCCCCCOC(=O)CCCCCCCCCCCCCCCCC,Docosyl stearate,66.5,eChemPortal
N#CC(/N=C/c1ccccc1[O-])=C(C#N)/N=C/c1ccccc1[O-].[Ni+2],–,356,eChemPortal
Cc1cccc(CC(C)(C)CO)c1,"2,2-Dimethyl-3-(3-methylphenyl)propanol",23.8,eChemPortal
O=C(O)Cc1coc2ccc3ccccc3c12,"Naphtho[2,1-b]furan-1-yl-acetic acid",167,OCHEM
Cc1c(F)ccc([N+](=O)[O-])c1C,"1-Fluoro-2,3-dimethyl-4-nitrobenzene",40.5,OCHEM
Cn1c(N)c(C(=O)CCl)c(=O)n(C)c1=O,–,186,OCHEM
CNC(=O)c1ccc(OC)c([N+](=O)[O-])c1,4-Methoxy-N-methyl-3-nitrobenzamide,165,eChemPortal
NC(=O)COc1ccc(C=O)cc1,2-(4-formylphenoxy)acetamide,135,OCHEM
CNC(=O)c1ccc(-c2cnc3ncc(Cc4ccc5ncccc5c4)n3n2)cc1F,Capmatinib,252,eChemPortal
Cc1c([N+](=O)[O-])cccc1S(=O)(=O)Cl,2-Methyl-3-nitrobenzene-1-sulfonyl chloride,48,OCHEM
CC(Cl)C(=O)c1c[nH]c2ccccc12 (stereo not drawn),2-chloro-1-(1H-indol-3-yl)propan-1-one,191,OCHEM
Cc1csc2c(Cl)cccc12,7-Chloro-3-methyl-1-benzothiophene,11.2,eChemPortal
N[C@@H](CCSC[C@H](N)C(=O)O)C(=O)O,S-(2-Amino-2-carboxyethyl)homocysteine,312,PubChem
Cn1c(NCCO)nc2ccccc21,2-(1-Methyl-1H-benzoimidazol-2-ylamino)-ethanol,76,OCHEM
CCCCCCCCCCCCCCCCOC(=O)Oc1c(Cl)cc(C(=O)OCC)cc1Cl,–,45.7,eChemPortal
Brc1cccc(Oc2ccc(Br)c(Br)c2)c1,BDE-35,20,OCHEM
FC(F)(F)C(F)(F)C(F)(F)C(F)(F)C(F)(F)C(F)(F)C(F)(F)CCI,"1-Iodo-1H,1H,2H,2H-perfluorononane",43,ChemicalBook
Clc1ccccc1-c1ncn[nH]1,"5-(2-chlorophenyl)-1H-1,2,4-triazole",155,OCHEM
CC(=O)c1ccc(CC(C)C)cc1,"Ethanone, 1-[4-(2-methylpropyl)phenyl]-",-13,eChemPortal
CC(O)CN(CC(C)O)c1nc(Nc2ccc(S(=O)(=O)[O-])cc2)nc(Nc2ccc(/C=C/c3ccc(Nc4nc(Nc5ccc(S(=O)(=O)[O-])cc5)nc(N(CC(C)O)CC(C)O)n4)cc3S(=O)(=O)[O-])c(S(=O)(=O)[O-])c2)n1.[Na+].[Na+].[Na+].[Na+] (stereo partly drawn),–,393.5,"OFMPub, eChemPortal"
CS(=O)(=O)c1ccc(C=O)c(C(F)(F)F)c1,–,113,eChemPortal
C=CCOC(=O)COc1ccccc1,Allyl phenoxyacetate,1.1,eChemPortal
Cc1cc(C)n(N)c(=O)c1C#N,–,165,OCHEM
CC[Si](ON=C(C)C)(ON=C(C)C)ON=C(C)C,–,-3.95,eChemPortal
Nc1cccnc1OCc1ccccc1,2-(Benzyloxy)pyridin-3-amine,52,OCHEM
BrC1C2CC3CC(C2)CC1C3 (stereo not drawn),2-Bromoadamantane,138.5,OCHEM

The last 4 entries again:

SMILES,name,melting point (°C),via
Cc1cc(C)n(N)c(=O)c1C#N,–,165,OCHEM
CC[Si](ON=C(C)C)(ON=C(C)C)ON=C(C)C,–,-3.95,eChemPortal
Nc1cccnc1OCc1ccccc1,2-(Benzyloxy)pyridin-3-amine,52,OCHEM
BrC1C2CC3CC(C2)CC1C3 (stereo not drawn),2-Bromoadamantane,138.5,OCHEM

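These are experimental values that the OPERA curators gathered from public databases to train and test their QSAR models. The files give a single number for a compound and property, which may rest on several reports. How each value was measured is not recorded, so precision varies. A value may pool stereoisomers or salt forms, and the file does not say which form was measured. Unmarked limits or estimates from the upstream databases cannot be ruled out.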